Laboratory results as given in PMC11167311, “Revolutionizing GPCR–ligand predictions: DeepGPCR with experimental validation for high-precision drug discovery” (Briefings in Bioinformatics, 2024).

Sequences of proteins named here, by UniProt entry; tags and fusion partners are left off. Residues count along the entry.
UniProt P43220, 24-463 limits assumed: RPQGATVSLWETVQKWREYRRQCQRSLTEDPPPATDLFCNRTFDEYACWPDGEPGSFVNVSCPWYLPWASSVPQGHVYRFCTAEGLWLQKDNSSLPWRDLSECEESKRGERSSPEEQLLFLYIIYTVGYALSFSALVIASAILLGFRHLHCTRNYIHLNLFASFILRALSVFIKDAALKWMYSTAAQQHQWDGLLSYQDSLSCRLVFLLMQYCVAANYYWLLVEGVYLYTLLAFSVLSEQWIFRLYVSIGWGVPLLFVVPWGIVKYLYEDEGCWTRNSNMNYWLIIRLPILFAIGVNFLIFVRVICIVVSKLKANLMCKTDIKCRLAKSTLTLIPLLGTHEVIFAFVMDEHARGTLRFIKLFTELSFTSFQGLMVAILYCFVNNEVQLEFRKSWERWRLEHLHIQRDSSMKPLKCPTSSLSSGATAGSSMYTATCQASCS

Columns and labels:
[1] = target: T1, hGLP-1R (Homo sapiens, UniProt P43220); experiment: DMR antagonism (desensitization) assay in HEK293-GLP-1R cells, taspoglutide challenge; assay type: cell-based; settings: desensitization when stimulated by agonist taspoglutide
Protocol: (§1) HEK293 cells were transfected with 8 μg of pcDNA3.1-GLP-1R plasmid mixed with 24 μl of Lipofectamine 2000 reagent (Invitrogen). After 24 h post-transfection, clones were selected using a complete medium containing 600 μg/ml G418 (LabLEAD Co., Beijing, China) and 6 μg/ml blasticidin S (Beyotime Co., Shanghai, China). Stable clones were selected through treatment with 600 μg/ml G418 and 6 μg/ml blasticidin S for 3–4 weeks to obtain the successfully transfected cell line HEK293-GLP-1R. Following culture for 3–4 months, the stably transfected cell line HEK293-GLP-1R was established. […] The culture medium in the 384-well biosensor plates was replaced with 30 μl of Hank’s balanced salt solution (1 × HBSS) and then further incubated inside the system for 1 h before measurement. […] All DMR responses were background-corrected.

[2] = target: T1, hGLP-1R; experiment: DMR agonism assay in HEK293-GLP-1R cells; assay type: cell-based
Protocol: as §1

Compound	GLP-1R activity (result in words) [1]	compound-triggered DMR signal in GLP-1R-HEK293 cells [2]
CCOC(=O)C1CCCN(C(=O)c2cccc(CSc3nc(C)cc(N4CCN(c5cccc(C(F)(F)F)c5)CC4)n3)c2)C1 (stereo not shown)	possesses GLP1R receptor antagonistic activity	does not induce a DMR signal
Cc1cc(C)c2c(n1)-n1cccc1C(c1ccc(F)cc1)N(C(=O)Nc1cccc(Cl)c1)C2 (stereo not shown)	partial GLP-1R antagonistic activity	do not induce a DMR signal
COCc1nc(-c2ccccc2)nc(N2CCN(C(C)=O)CC2)c1Cc1cccc(C(F)(F)F)c1	GLP-1R receptor antagonistic activity at 200 μM	either do not induce a DMR signal or exhibit a weak signal
Cc1ccccc1C1=NOC(CN(Cc2cccc(F)c2)CC(O)COCC(C)C)C1 (stereo not shown)	GLP-1R receptor antagonistic activity at 200 μM	either do not induce a DMR signal or exhibit a weak signal
COc1ccc2c(c1)NC1(CCN(C(=O)NCCc3ccccc3)CC1)c1cccn1-2	partial GLP-1R antagonistic activity	do not induce a DMR signal
